Biological target: recombinant human soluble ECD of CD64/FCGRIA (human) (UniProt P12314)
Experiment: ELISA: plate coated with recombinant human CD64/FcγRI ECD, antibody titrated, goat anti-human Fc-HRP, OD650

Row | Substance | EC50 (read off the curve) [mg/L]
1 | Anti-EGFR Mab No. 2, L234A, L235A (antibody; other documents disagree on this pair) | 4
2 | Anti-EGFR Mab No. 2, wild-type (antibody; other documents disagree on this pair) | 0.04

Reference: US20240058466A1
